The results in this text go back to US10370380B2, “Octahydropyrrolo[3,4-c]pyrrole derivatives and uses thereof” (Sunshine Lake Pharma Co., Ltd., priority 2015, dated 2019).

By UniProt entry, the sequences of proteins in these tests, tags left out.
UniProt O43613, whole entry: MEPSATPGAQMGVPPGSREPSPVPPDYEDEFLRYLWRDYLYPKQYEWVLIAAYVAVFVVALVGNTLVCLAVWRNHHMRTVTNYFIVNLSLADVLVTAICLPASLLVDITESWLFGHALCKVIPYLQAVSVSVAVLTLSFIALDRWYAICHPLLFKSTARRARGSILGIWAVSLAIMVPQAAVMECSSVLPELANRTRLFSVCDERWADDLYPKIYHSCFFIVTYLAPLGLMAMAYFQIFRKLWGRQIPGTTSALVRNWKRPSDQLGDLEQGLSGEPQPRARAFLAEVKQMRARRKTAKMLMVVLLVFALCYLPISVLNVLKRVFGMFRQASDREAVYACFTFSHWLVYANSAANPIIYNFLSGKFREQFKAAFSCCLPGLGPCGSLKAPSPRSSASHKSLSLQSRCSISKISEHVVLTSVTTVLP

The assay concerns the target T1, humanized OX1 receptor (Homo sapiens, UniProt O43613).
T1 construct: expressed in transfected cells; host or cells: CHO (Chinese hamster ovary) cells
The assay can be described thus: Antagonistic effect on humanized OX1 receptor, calcium flux by fluorescence detection in CHO cells. Type of assay: cell-based. On the procedure:
The capability of the compounds provided herein to antagonize humanized OX1 receptor expressed in Chinese hamster ovary (CHO) cells was evaluated by the influence of the compounds disclosed herein on calcium flux in cells induced by agonist detected by a method of fluorescence detection. The cells were suspended in DMEM culture medium (invitrogen), and then added to a microplate with an average density of 2×10^4 cells/well. The Hank's balanced salt solution (pH 7.4) containing fluorescent probes (Fluo4 NW, Invitrogen), probenecid (invitrogen), 20 mM hydroxyethyl piperazine acetic sulfuric acid (invitrogen) was added to the above microplate, and then incubated together with the cells at 37° C. for 60 min, further incubated at 22° C. for 15 min. The microplate was placed in a microplate reader (CellLux, PerkinElmer), and to which was added the test compound or reference antagonist or Hank's balanced salt solution, 5 min later, 3 nM of orexin A or Hank's balanced salt solution (as a blank contrast) was added. […] The experimental results were expressed as an inhibition percentage relative to a control group (the group with 3 nM of orexin A).
The standard reference antagonist is SB334867, and IC50 values were calculated by the dose-effect curve obtained from a series of concentrations of the experimental test.
For orientation: Calcium assays in cells follow changes in intracellular calcium, usually with a dye or a luminescent sensor.

As usually defined, the IC50 is the concentration that gives 50% inhibition.

Take `Cc1ccc(-n2nccn2)c(C(=O)N2CCN(c3nc4cc(Cl)ccc4o3)CC[C@H]2C)c1` [suvorexant, reference compound]: the IC50 was 341 nM.
